Data taken from US7576115B2, “Heterocyclic compounds and thrombopoietin receptor activators” (Nissan Chemical Industries, Ltd., priority 2003, dated 2009).

By UniProt entry, the sequences of proteins in these tests, tags left out. Residues count along the entry.
UniProt P40238, 26-635 limits assumed: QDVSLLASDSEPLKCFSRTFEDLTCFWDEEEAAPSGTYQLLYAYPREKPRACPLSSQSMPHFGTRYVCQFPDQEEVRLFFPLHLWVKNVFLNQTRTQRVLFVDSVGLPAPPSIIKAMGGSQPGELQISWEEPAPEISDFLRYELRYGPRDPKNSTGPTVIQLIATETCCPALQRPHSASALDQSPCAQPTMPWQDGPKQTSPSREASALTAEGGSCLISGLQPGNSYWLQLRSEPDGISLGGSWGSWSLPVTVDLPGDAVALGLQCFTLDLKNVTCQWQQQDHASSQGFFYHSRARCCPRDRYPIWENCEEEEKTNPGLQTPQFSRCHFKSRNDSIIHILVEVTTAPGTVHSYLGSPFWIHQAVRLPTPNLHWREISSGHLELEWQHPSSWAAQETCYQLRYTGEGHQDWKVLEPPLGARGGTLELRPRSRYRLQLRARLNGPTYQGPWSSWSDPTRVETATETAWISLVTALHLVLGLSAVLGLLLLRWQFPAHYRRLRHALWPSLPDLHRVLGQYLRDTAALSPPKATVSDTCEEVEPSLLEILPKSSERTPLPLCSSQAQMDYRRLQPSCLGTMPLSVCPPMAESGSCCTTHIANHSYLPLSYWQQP

Biological target: thrombopoietin (TPO) receptor (Homo sapiens, UniProt P40238)
Assay: Stimulation of proliferation of TPO-dependent cell line UT7/EPO-mpl (WST-8)
Conditions: concentration that yields a growth rate corresponding to 50% of the growth of UT-7/EPO-mpl observed in the presence of 10 ng/ml TPO
Procedure: The reactivity of the compound of Synthetic Example 3 of the present invention with thrombopoietin (TPO) receptor was assayed using a human leukemic cell line, UT7/EPO-mpl.
UT7/EPO-mpl is a stable transformed cell line obtained by introducing into human leukemic cell line UT7/EPO a vector that induces expression of human TPO receptor (c-mp1) under control of a cytomegaloviral promoter by the method of Takatoku et al. (J. Biol. Chem., 272:7259-7263 (1997)). […] These two cell lines were subcultured in Iscove's modified Dulbecco's medium (IMDM; GIBCO) containing 10% fetal bovine serum (FBS; TRACE SCIENTIFIC, Thermo Electron or BioWest) using a CO2 incubator (5% CO2, 37° C.)
The subcultured cells described above were washed twice with phosphate buffered saline (PBS) and suspended in IMDM containing 10% FBS at a cell density of 6×10^4 cells/ml. The cell suspension was transferred to a 96-well tissue culture plate (CORNING) in 100 μl aliquots. Then either TPO (PeproTech EC) or the compound of Synthetic Example 3 dissolved in dimethyl sulfoxide (DMSO) was diluted 83-fold with IMDM containing 10% FBS and added to the aforementioned cell suspension in 20 μl aliquots. The suspension was incubated in a CO2 incubator (5% Co2, 37° C.) for 4 days. Cell proliferation was assayed using WST-8 reagent (Kishida Chemical Co., Ltd.) according to instructions by the manufacturer. A 10 μl aliquot of 5 mM WST-8 reagent solution was added to each well of the tissue culture plate, and the plate was incubated at 37° C. for 4 h. The formazan pigment generated was detected by measuring the absorbance at 450 nm with a 96-well microplate reader (Nihon Molecular Devices, Spectramax 190).
The compounds of the following Synthetic Examples were tested according to the method of Assay Example 1 to determine the concentration of each compound that yields a growth rate corresponding to 50% of the growth of human leukemic cell line UT-7/EPO-mpl observed in the presence of 10 ng/ml TPO (EC50).

EC50 [ng/mL]	EC50 (tested form: K salt) [ng/mL]	SMILES
5.9		CC(=NNC(=S)Nc1ccc(C(=O)O)cc1)c1nn(C)c(-c2ccc(C)c(C)c2)c1O
4.7		CC(=NNC(=S)Nc1ccc(C(=O)O)c([N+](=O)[O-])c1)c1csc(-c2ccc(C(F)(F)F)cc2)c1O
5.8		CC(C)C(=NNC(=O)c1ccc(C(=O)O)cc1)c1csc(-c2ccc(C(C)(C)C)cc2)c1O
2.2		C/C(=N\NC(=O)c1ccc(-c2nnn[nH]2)cc1)c1csc(-c2ccc(Cl)c(Cl)c2)c1O
45.0		CC(=NNC(=O)c1cccc(C(=O)O)c1)c1nn(C)c(-c2ccc(C(C)(C)C)cc2)c1O
3.9		CC(=NNC(=S)Nc1ccc(Cl)cc1OCCCC(=O)O)c1nn(C)c(-c2ccc(C(F)(F)F)cc2)c1O
3.7		CC(=NNC(=S)Nc1ccc(C(=O)O)cc1)c1nn(Cc2ccccc2)c(-c2ccc(C(C)(C)C)cc2)c1O
21.3		CCCCCc1ccc(-c2c(O)c(C(C)=NNC(=S)Nc3ccc(C(=O)O)cc3)nn2C)cc1
	2.9	CC(=NNC(=S)Nc1ccc(S(=O)(=O)O)cc1)c1csc(-c2ccc(Cl)c(Cl)c2)c1O
4.2		CC(=NNC(=O)c1ccc(C(=O)N2CCN(C)CC2)c([N+](=O)[O-])c1)c1csc(-c2ccc(C(C)(C)C)cc2)c1O
4.5		CC(=NNC(=S)Nc1ccc(C(=O)O)cc1)c1nn(C)c(-c2ccc(Cl)c(Cl)c2)c1O [Synthetic Example 2, 4-{[(2-{1-[5-(3,4-dichlorophenyl)-4-hydroxy-1-methyl-1H-pyrazol-3-yl]ethylidene}hydrazino)carbonothioyl]amino}benzoic acid]
3.5		CC(=NNC(=S)Nc1ccc(C(=O)O)cc1)c1nn(C)c(-c2ccc(C(C)(C)C)cc2)c1O
4.3		CC(=NNC(=O)c1ccc(C(=O)O)cc1)c1nn(Cc2ccccc2)c(-c2ccc(C(C)(C)C)cc2)c1O
14		CC(C)(C)c1ccc(-c2scc(C=NNC(=S)Nc3ccc(C(=O)O)cc3)c2O)cc1
6.0		CC(=NNC(=O)c1ccc2[nH]c(=S)[nH]c2c1)c1csc(-c2ccc(Cl)c(Cl)c2)c1O
3.4		C/C(=N\NC(=S)Nc1ccc(S(N)(=O)=O)cc1)c1csc(-c2ccc(Cl)cc2)c1O
2.9		C/C(=N\NC(=O)c1ccc(-c2nnn[nH]2)s1)c1csc(-c2ccc(OC(F)(F)F)cc2)c1O
3.8		CCn1nc(C(C)=NNC(=S)Nc2ccc(C(=O)O)cc2)c(O)c1-c1ccc(C(C)(C)C)cc1
13		CC(=NNC(=O)c1oncc1C)c1csc(-c2ccc(Cl)c(Cl)c2)c1O
4.7		CC(=NNC(=S)Nc1ccc(C(=O)O)c(Cl)c1)c1nn(C)c(-c2ccc(C(F)(F)F)cc2)c1O
2.9		CC(=NNC(=S)Nc1ccc(C(=O)O)cc1)c1nn(C)c(-c2ccc(C(F)(F)F)cc2)c1O
3.3		CC(=NNC(=O)c1ccc(C(=O)O)c([N+](=O)[O-])c1)c1nn(C)c(-c2ccc(Cl)cc2)c1O
7.8		CCCCCc1ccc(-c2c(O)c(C(C)=NNC(=O)c3ccc(C(=O)O)cc3)nn2C)cc1
10.5		COC(=O)c1cccc(C(=O)NN=C(C)c2nn(C)c(-c3ccc(C(C)(C)C)cc3)c2O)c1
3.5		CC(=NNC(=S)Nc1cccc(C(=O)O)c1)c1csc(-c2ccc(Cl)c(Cl)c2)c1O
3.2		CC(=NNC(=O)c1ccc(C(=O)O)s1)c1nn(C)c(-c2ccc(Cl)c(Cl)c2)c1O
3.5		CC(=NNC(=O)c1ccc(C(=O)O)cc1)c1nn(C)c(-c2ccc(Cl)c(Cl)c2)c1O
2.7		CC(=NNC(=O)c1ccc(C(=O)O)cc1)c1nn(C)c(-c2ccc(C(C)(C)C)cc2)c1O [Synthetic Example 3, 4-[(2-{1-[5-(4-tert-butylphenyl)-4-hydroxy-1-methyl-1H-pyrazol-3-yl]ethylidene}hydrazino)carbonyl]benzoic acid]
